Data from a melting point compilation (Tetko et al.).

conditions: a range is the spread between reports

SMILES | melting point
c1ccc2cccc-2cc1 | 99 to 100 °C
OCCOCCOCCOCCO | -6.2 to -4 °C
COc1ccc(CO)cc1 | 24 to 26 °C

Second part, the compound after the results:

melting point | SMILES
-98 to -95 °C | CCCCOCCCC
-97.7 to -97 °C | CCl
-89.9 to -86.3 °C | CC1CCC(C(C)C)CC1 (configuration not stated)
185 to 186 °C | C1CNCCNCCCNCCNC1
